Tested on: oral squamous carcinoma stem cells (OSCSCs)
Test: 51Cr release cytotoxicity of treated purified NK cells against OSCSCs
Assay type: cell-based, human
Method: The ^51Cr release assay was performed as described previously. Patient-derived OSCSCs were used as a specific and sensitive NK targets to assess NK cell-mediated cytotoxicity. Briefly, different numbers of effector cells were incubated with ^51Cr-labeled OSCSCs. After 4-hour incubation the supernatants were harvested from each sample and counted on a gamma counter. The percentage specific cytotoxicity was calculated using the following formula:
Lytic unit 30/10^6 is calculated by using the inverse of the number of effector cells needed to lyse 30% of tumor target cells×100.
NK cells were isolated from PBMCs as described in the materials and methods section. Purified NK cells were left untreated, or treated with IL-2 (1000 U/mL) or treated with the combination of IL-2 and anti-CD16 mAb (3 μg/ml). After an overnight incubation, the NK cell mediated cytotoxicity was measured using a standard 4-hour chromium release assay against oral squamous carcinoma stem cells (OSCSCs). The lytic units 30/10^6 cells were determined using inverse number of NK cells required to lyse 30% of the target cells×100. No significant differences in NK cytotoxicity by purified NK cells between the donors (FIG. 2C).
NK cytotoxicity. NK cells were isolated from PBMCs as described in the materials and methods section. Purified NK cells were left untreated, or treated with IL-2 (1000 U/mL) or treated with the combination of IL-2 and anti-CD16 mAb (3 μg/ml) or IL-2+sAJ2 (Cells:sAJ2 1:20). After an overnight incubation, the NK cell mediated cytotoxicity was measured using a standard 4-hour chromium release assay against oral squamous carcinoma stem cells (OSCSCs). The lytic units 30/10^6 cells were determined using inverse number of NK cells required to lyse 30% of the target cells×100 (Table 19).

For Recombinant human IL-2, the NK cytotoxicity (H66 JC (ALS) NK) was 117.87 lytic units 30/10^6 cells, the NK cell cytotoxicity (H80 DM NK) was 25.28 lytic units 30/10^6 cells and the NK cell cytotoxicity (H81 JC (ALS) NK) was 44.80 lytic units 30/10^6 cells. It also gave an NK cell cytotoxicity (H82 TC (healthy twin) NK) of 36.37 lytic units 30/10^6 cells, an NK cytotoxicity (H84 JC NK alone) of 104.22 lytic units 30/10^6 cells and an NK cytotoxicity (H85 TC NK alone) of 72.62 lytic units 30/10^6 cells. The “NK cytotoxicity in purified NK cells, Mean” value (H171 JC NK, ALS) was 57.06, the “NK cytotoxicity in purified NK cells, Mean” value (H172 TC NK, control twin) was 69.13 and the “cytotoxicity of NK cells, Mean” value (H174 JC NK, ALS) was 142.1. The “cytotoxicity of NK cells, Mean” value (H175 TC NK, control twin) was 154.9, the “NK cytotoxicity, Mean” value (H195 RS NK, Table 204) was 17.21 and the “NK cytotoxicity, Mean” value (H196 TC NK, Table 204) was 19.53. The “NK cytotoxicity, Mean” value (H211 JC NK (ALS patient)) was 81.51, the “NK cytotoxicity, Mean” value (H213 JC NK (ALS patient)) was 157.04 and the “NK cytotoxicity, Mean” value (H214 TC NK (twin control)) was 80.80. For the same substance, the NK cell cytotoxicity (KZ sNK (day 17)) was 89.02 lytic units 30/10^6 cells, the “LU AVERAGE” value (NK H140 JC) was 167.50 LU 30/106 cells and the “LU AVERAGE” value (NK H141 RS) was 14.79 LU 30/106 cells. For the same substance, the “LU AVERAGE” value (NK H142 JS) was 58.61 LU 30/106 cells, the “lytic units 30/10^6 cells, Mean” value (NK H143 JC) was 117.46 lytic units 30/10^6 cells and the “lytic units 30/10^6 cells, Mean” value (NK H144 TC) was 205.18 lytic units 30/10^6 cells. For the same substance, the “lytic units 30/10^6 cells, Mean” value (NK H145 WO) was 171.54 lytic units 30/10^6 cells, the “NK cytotoxicity, Mean” value (NK cells of H109 RS1 (ALS patient, Pre-NAC)) was 331.64 lytic units 30/10^6 cells and the “NK cytotoxicity, Mean” value (NK cells of H110 RS2 (ALS patient, Post-NAC)) was 373.11 lytic units 30/10^6 cells. For the same substance, the “NK cytotoxicity, Mean” value (NK cells of H111 AK (control)) was 131.16 lytic units 30/10^6 cells, the “NK cytotoxicity, Mean” value (NK cells of H117 JC (ALS)) was 36.93 lytic units 30/10^6 cells and the “NK cytotoxicity, Mean” value (NK cells of H118 TC (control twin)) was 55.72 lytic units 30/10^6 cells. For the same substance, the “NK cytotoxicity, Mean” value (NK cells of P99 ME (control)) was 72.37 lytic units 30/10^6 cells, the “51Cr release NK Mean” value (NK of H102 JC) was 49.62 lytic units 30/10^6 cells and the “51Cr release NK Mean” value (NK of H103 TC) was 157.59 lytic units 30/10^6 cells. For the same substance, the “51Cr release NK Mean” value (NK of H104 RS (another patient with ALS)) was 144.55 lytic units 30/10^6 cells, the NK cytotoxicity (P66 LP NK) was 218.17 lytic units 30/10^6 cells and the NK cell cytotoxicity (P82 SS NK) was 37.57 lytic units 30/10^6 cells. For the same substance, the “lytic units 30/10^6 cells, Mean” value (P113 HA NK) was 218.54 lytic units 30/10^6 cells, the “Lytic units, Mean” value (P153 NK) was 94.51 Lu70/10^6 and the NK cell cytotoxicity (RO sNK (day 17)) was 45.50 lytic units 30/10^6 cells. For the same substance, the “NK cell mediated cytotoxicity” value (Table 6, H53 NK alone, row 2.5) was 26.5, the “NK cell mediated cytotoxicity” value (Table 6, H53 NK alone, row 5) was 43.7 and the “NK cell mediated cytotoxicity” value (Table 7, H53 NK alone, row 2.5) was 26.5. For the same substance, the “NK cell mediated cytotoxicity” value (Table 7, H53 NK alone, row 5) was 43.7, the “NK cell mediated cytotoxicity” value (Table 8, H53 NK alone, row 2.5) was 26.5 and the “NK cell mediated cytotoxicity” value (Table 8, H53 NK alone, row 5) was 43.7. For the same substance, the “NK cell mediated cytotoxicity” value (Table 10, H52 TC NK alone, row 2.5) was 51.4, the “NK cell mediated cytotoxicity” value (Table 10, H52 TC NK alone, row 5) was 77.7 and the “NK cell mediated cytotoxicity” value (Table 11, H52 TC NK alone, row 2.5) was 51.4. The “NK cell mediated cytotoxicity” value (Table 11, H52 TC NK alone, row 5) was 77.7 and the “NK cytotoxicity, Mean” value (printed H211 JC NK) was 46.58.

Reference: patent US20240245770A1, “COMPOSITIONS AND METHODS FOR TREATING NEUROMUSCULAR DISORDERS” (The Regents of the University of California, priority 2019, published 2024)
